Here are results for one compound from patent US8450325B2, “Methods for reducing the recurrence of cardiac arrhythmia” (ChanRx Corp., priority 2002, dated 2013).

Chains of the proteins cited; added tags and fusions are not shown. Lines headed by an entry give the natural chain unless they say otherwise; changes in a name come on top.
UniProt Q12809: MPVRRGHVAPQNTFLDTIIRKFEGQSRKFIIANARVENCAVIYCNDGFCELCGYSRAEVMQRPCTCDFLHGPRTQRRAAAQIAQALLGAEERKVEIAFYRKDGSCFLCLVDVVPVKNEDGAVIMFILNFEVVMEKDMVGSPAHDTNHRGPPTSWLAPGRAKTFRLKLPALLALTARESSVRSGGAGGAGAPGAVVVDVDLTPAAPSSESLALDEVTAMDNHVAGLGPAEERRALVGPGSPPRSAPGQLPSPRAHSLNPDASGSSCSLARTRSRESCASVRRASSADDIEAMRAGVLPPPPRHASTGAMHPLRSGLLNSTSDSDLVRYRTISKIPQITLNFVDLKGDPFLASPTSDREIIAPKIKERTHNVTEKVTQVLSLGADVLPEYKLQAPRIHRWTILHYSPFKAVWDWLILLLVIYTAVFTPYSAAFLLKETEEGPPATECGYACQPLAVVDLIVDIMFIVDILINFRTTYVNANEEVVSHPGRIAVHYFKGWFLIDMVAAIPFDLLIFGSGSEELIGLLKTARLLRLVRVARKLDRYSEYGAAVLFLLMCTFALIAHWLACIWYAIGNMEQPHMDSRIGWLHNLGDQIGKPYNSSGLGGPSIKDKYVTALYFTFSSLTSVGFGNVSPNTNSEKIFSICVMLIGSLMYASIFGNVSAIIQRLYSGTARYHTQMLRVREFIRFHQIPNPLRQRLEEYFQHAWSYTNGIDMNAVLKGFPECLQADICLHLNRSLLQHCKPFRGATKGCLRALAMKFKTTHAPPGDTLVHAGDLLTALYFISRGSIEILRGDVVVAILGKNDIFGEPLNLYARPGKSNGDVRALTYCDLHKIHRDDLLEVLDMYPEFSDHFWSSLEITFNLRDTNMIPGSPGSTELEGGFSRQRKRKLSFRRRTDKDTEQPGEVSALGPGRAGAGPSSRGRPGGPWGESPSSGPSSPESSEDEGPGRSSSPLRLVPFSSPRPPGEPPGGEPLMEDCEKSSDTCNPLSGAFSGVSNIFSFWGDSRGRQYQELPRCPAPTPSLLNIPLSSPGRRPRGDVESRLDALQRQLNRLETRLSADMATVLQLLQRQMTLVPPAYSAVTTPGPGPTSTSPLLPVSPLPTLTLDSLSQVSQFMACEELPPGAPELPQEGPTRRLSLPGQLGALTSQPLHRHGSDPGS

For this test, the target named is hERG (IKr) channel (Homo sapiens, UniProt Q12809). Briefly: cell-based.

The term IC50 denotes the point on the concentration scale where inhibition reaches its midpoint. A lower IC50 goes with greater potency. `Fc1ccc(C(OCCN2CCN(CCCc3ccccc3)CC2)c2ccc(F)cc2)cc1` [Vanoxerine, vanoxerine]: 15 nM corresponded to half-maximal inhibition (IC50).
